Measured values reported in US4999199A, “Pharmaceutical formulations: liposomes incorporating aromatic polyene antibiotics” (priority 1988, dated 1991).

What was measured:
[1] = tested on: mice; conditions: multilamellar liposomes or free drug, intravenous infection model
[2] = tested on: mice; experiment: Acute toxicity of small unilamellar vesicles (SUV) of candicidin injected intravenously into mice; conditions: intravenous, free form solubilized in DMSO

How did the “maximal tolerated dose (MTD)” value [1] turn out when candicidin was run?
Its value is 1 mg/kg.

What about the maximal tolerated dose [2] of the same substance?
The maximal tolerated dose was 1 mg/kg.
